One experiment addresses mGluR5 (Homo sapiens, UniProt P41594). The experiment can be described thus: traditional membrane binding assay. The note with it: comparison value for the intact cell assays.
For experiment [1], the target named is T1, human metabotropic subtype 5 (mGluR5a) (Homo sapiens, UniProt P41594).
T1 construct: expressed in transfected cells; host or cells: HEK293
The experiment can be described thus: MAGEC-based intact cell-binding assay (HEK293 cells MAGEC transfected with mGluR5a cDNA). The note with it: displacement of 30 nM 3H-labeled compound L; 96-well plates coated with fibronectin or collagen I, 384-well plate coated with collagen I; no curves on PDL-coated plates.

Protein sequences, listed by entry. Tags and fused reporters are not part of them. Residues count along the entry.
UniProt P41594, 21-1212: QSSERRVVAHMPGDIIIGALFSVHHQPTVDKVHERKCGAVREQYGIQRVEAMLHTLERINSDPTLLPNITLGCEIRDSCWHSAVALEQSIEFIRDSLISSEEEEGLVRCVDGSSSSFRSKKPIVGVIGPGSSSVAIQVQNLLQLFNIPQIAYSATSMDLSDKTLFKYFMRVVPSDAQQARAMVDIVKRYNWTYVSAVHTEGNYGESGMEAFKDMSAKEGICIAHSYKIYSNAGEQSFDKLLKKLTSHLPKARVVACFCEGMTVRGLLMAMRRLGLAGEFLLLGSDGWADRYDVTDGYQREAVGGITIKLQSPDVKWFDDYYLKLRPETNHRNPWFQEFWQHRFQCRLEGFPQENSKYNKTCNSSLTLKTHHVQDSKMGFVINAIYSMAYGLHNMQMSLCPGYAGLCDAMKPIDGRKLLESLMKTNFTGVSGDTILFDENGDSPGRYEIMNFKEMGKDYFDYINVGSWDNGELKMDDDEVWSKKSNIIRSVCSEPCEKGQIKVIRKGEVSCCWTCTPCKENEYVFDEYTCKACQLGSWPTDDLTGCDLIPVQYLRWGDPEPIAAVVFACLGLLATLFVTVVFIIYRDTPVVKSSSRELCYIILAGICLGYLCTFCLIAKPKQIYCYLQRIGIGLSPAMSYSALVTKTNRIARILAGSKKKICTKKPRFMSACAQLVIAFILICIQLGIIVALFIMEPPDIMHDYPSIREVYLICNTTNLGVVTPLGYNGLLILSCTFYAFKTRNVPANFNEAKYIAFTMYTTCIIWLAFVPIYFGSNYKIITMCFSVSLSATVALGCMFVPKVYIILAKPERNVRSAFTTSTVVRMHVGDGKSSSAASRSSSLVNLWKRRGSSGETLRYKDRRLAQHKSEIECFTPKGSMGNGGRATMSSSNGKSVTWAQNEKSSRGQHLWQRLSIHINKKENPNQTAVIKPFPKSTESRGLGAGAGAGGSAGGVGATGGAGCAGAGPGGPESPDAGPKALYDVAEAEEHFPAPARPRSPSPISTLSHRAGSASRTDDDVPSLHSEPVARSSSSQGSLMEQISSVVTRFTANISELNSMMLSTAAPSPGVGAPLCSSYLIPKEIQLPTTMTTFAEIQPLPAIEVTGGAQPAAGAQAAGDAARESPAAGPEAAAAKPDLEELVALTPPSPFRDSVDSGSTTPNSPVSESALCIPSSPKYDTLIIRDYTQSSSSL
UniProt P41594, 21-1180 isoform P41594-2 limits assumed: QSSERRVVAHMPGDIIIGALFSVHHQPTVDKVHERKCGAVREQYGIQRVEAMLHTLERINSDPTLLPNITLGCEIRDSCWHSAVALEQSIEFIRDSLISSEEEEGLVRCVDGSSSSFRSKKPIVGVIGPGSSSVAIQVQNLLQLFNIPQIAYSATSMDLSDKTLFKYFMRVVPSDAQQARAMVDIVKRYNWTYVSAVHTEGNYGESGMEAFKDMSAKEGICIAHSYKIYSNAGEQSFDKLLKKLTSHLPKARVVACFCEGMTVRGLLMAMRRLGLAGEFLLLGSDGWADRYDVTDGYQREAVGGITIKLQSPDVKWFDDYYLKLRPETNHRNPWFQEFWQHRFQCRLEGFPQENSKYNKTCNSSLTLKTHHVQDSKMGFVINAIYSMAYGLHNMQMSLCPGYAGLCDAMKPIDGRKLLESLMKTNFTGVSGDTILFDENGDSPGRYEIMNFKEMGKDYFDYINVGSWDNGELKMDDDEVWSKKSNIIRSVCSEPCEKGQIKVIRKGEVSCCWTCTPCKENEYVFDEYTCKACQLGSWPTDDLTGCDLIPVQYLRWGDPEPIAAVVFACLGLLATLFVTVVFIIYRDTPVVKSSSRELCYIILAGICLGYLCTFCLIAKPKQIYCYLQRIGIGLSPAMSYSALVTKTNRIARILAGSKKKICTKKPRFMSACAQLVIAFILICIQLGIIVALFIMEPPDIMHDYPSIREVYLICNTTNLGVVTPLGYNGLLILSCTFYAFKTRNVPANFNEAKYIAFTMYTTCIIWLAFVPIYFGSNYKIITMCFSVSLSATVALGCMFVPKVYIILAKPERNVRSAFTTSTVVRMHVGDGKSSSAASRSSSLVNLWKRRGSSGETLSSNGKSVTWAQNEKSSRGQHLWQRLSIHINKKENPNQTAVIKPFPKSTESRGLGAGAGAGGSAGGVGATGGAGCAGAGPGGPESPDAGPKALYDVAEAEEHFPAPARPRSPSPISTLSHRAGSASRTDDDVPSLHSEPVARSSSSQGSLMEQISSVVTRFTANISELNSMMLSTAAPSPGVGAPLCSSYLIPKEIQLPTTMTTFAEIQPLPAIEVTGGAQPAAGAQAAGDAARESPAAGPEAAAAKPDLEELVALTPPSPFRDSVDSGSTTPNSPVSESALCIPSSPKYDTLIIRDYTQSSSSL

As to `Cc1cccc(C#Cc2ccccc2)n1.Cl` [MPEP, 2-Methyl-6-(phenylethynyl)pyridine hydrochloride], on mGluR5, the IC50 worked out at 30 µM. The “IC50 values from intact cell binding assays compared with membrane binding assay” value in experiment [1] is “very similar”.
